{
  "source": "PubChem BioAssay AID1850",
  "about": "(Southern Research Specialized Biocontainment Screening …, 2009)",
  "note": "Screen size: about 310,000 compounds; about 1,000 (0.32%) were called active. Only results without a clear call are listed here; the source files them as inconclusive. How the calls were made is not given here.",
  "data": [
    {"test": "PhoP regulon inhibitors, Salmonella typhi PhoP promoter GFP reporter, confirmatory (AID 1850);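 further: 0% = induced wells with vehicle and 100% = uninduced wells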", "conditions": "fluorescence, 4 h, at 50 µM, stronger effect = higher value", "values": [
      {"smiles": "O=C(O)c1ccccc1[As](=O)(O)O", "inhibition": "inconclusive: 96.8%"}
    ]}
  ]
}
